Data from ChEMBL document CHEMBL1250462, “Affinity of aporphines for the human 5-HT2A receptor: insights from homology modeling and molecular docking studies” (Bioorg Med Chem, 2010).

Sequences of proteins named here, by UniProt entry; tags and fusion partners are left off.
UniProt P28223, whole entry: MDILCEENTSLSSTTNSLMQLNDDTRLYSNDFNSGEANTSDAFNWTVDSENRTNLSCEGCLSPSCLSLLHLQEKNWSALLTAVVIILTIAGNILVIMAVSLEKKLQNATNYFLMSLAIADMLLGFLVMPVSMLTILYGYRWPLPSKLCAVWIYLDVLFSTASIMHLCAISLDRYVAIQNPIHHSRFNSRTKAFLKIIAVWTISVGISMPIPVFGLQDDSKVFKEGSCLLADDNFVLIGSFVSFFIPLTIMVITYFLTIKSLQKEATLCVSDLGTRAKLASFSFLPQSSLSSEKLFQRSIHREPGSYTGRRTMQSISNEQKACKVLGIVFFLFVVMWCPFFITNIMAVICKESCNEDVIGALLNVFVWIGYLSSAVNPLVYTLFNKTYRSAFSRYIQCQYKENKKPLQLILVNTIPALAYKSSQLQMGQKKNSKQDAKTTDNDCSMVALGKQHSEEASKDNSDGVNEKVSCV

Molecular target: 5-hydroxytryptamine receptor 2A (Homo sapiens) (UniProt P28223)

| Structure (SMILES) | Ke [µM] |
| --- | --- |
| COc1cc2c(c(-c3ccc4c(c3)OCO4)c1OC)C(C)N(C)CC2 (centres undefined) | > 10 |
| CCN1CCc2cc(OC)c(OC)c3c2C1Cc1cc2c(cc1-3)OCO2 (centres undefined) | > 10 |
| COc1cc2c3c(c1OC)-c1cc4c(cc1CC3NCC2)OCO4 (centres undefined) | > 10 |
| COc1cc2c(c(-c3ccc4c(c3)OCO4)c1OC)CN(C)CC2 | > 10 |
